Reference: PMC2774619 (Current Chemical Genomics, 2008)
Read-outs that look alike come from different tables or passages of the source.

Sequences of proteins named here, by UniProt entry; tags and fusion partners are left off. A change or cut given only in a name is not applied to a line headed by its entry.
UniProt P08482: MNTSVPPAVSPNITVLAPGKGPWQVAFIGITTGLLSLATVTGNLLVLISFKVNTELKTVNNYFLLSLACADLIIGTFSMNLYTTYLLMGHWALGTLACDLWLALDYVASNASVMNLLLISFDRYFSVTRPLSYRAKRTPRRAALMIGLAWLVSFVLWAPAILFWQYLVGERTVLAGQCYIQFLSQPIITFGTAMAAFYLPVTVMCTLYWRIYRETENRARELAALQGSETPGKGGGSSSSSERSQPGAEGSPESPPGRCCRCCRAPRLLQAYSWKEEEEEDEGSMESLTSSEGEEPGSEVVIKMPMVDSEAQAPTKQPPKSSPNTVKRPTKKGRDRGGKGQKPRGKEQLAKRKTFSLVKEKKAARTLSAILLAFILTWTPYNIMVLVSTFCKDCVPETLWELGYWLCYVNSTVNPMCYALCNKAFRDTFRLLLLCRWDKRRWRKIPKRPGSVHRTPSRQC
UniProt P12657: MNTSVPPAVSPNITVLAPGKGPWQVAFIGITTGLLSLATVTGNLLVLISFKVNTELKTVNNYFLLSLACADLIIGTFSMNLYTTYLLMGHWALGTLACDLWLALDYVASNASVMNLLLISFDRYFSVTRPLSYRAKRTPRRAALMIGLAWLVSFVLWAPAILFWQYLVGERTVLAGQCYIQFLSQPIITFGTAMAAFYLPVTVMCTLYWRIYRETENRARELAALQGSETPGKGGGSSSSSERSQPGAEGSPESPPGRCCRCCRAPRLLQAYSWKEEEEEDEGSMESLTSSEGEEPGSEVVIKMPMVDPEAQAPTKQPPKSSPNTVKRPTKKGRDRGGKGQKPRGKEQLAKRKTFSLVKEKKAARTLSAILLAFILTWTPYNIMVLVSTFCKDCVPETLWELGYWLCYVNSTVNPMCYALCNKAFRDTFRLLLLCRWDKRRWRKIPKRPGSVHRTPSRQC

Assays:
[1] = biological target: T1, murine M1 muscarinic acetylcholine receptor (Rattus norvegicus, UniProt P08482); conditions: read-out: IC50, IP-One Assay
[2] = biological target: murine M1 muscarinic acetylcholine receptor (Mus musculus, UniProt P12657); conditions: read-out: IC50, Calcium Assay
[3] = biological target: T1, murine M1 muscarinic acetylcholine receptor; experiment: cell-based; conditions: IC50, IP-One Assay

Row | Compound | IC50 [1] | IC50 [2] | IC50 [3]
1 | (-)-Scopolamine methyl nitrate | 1 nM | 12 nM | 
2 | CC(C)[N+]1(C)[C@@H]2CC[C@H]1C[C@@H](OC(=O)C(CO)c1ccccc1)C2 (stereo partly drawn) [Ipratropium bromide] |  |  | 4 nM
